Structures are written as SMILES. The entries are a selection whose mix differs from that of the whole data set. Inconclusive results are not listed. Active and inactive are the calls of the source. How the source made its calls, unless noted: active means hit-call score of the fitted dose curve at least 0.9, where 1 is the maximum; inconclusive means response in the unintended direction; inactive means score below 0.9.

Sequences of proteins named here, by UniProt entry; tags and fusion partners are left off. A change or cut given only in a name is not applied to a line headed by its entry.
UniProt P10275: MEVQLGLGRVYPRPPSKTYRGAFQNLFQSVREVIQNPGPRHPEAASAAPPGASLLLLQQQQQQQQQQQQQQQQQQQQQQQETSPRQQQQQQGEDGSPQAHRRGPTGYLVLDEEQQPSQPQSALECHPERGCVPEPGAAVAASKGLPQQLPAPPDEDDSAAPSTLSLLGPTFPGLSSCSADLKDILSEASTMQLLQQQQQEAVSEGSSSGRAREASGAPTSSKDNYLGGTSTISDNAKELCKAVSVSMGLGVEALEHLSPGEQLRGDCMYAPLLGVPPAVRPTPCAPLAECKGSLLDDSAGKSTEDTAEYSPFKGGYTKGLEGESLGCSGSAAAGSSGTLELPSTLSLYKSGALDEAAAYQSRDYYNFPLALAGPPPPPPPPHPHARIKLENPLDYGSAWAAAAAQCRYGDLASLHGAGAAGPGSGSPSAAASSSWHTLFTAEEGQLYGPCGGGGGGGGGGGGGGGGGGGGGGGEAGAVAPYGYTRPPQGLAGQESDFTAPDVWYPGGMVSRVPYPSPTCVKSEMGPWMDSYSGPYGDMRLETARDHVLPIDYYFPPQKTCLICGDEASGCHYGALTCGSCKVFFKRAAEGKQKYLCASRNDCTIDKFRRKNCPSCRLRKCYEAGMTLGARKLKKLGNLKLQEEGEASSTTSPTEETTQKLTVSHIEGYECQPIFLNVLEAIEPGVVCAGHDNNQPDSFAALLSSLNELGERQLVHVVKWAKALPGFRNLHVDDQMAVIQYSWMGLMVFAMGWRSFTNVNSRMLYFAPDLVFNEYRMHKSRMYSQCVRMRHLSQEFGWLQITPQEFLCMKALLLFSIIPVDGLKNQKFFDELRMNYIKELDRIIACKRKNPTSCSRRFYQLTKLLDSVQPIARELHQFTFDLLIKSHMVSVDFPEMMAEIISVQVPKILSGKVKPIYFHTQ

One test deals with Nucleoli Translocation, AR (gene 367) (UniProt P10275). The test can be described thus: UPITT_HCI_U2OS_AR_TIF2_Nucleoli_Antagonist: University of Pittsburgh U2OS Androgen Receptor-Transcriptional Intermediary Factor 2 (AR-TIF2) Antagonism High Content Imaging Assay for Nucleoli Translocation (AID 2283997). Summed up:
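U2OS cells expressing RFP-tagged human AR and GFP-tagged TIF2 were imaged by high-content fluorescence microscopy for red AR signal in the nucleolar region. Compounds were screened at 20 uM final (0.2% DMSO), with activity fitted relative to DHT as baseline.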
For the compound `Cc1cc([N+](=O)[O-])cc([N+](=O)[O-])c1O`, the call was inactive.

In the case of `O=C1C2CC=CCC2C(=O)N1SC(Cl)(Cl)C(Cl)Cl` (stereo not given), the call was inactive.

`O=[P+](Oc1ccccc1)Oc1ccccc1`: the result was inactive.

A further test deals with Ratio of Nucleoli Translocation and Cytoplasm, AR (gene 367) (UniProt P10275). The test can be described thus: UPITT_HCI_U2OS_AR_TIF2_Nucleoli_Cytoplasm_Ratio_Antagonist: University of Pittsburgh U2OS Androgen Receptor-Transcriptional Intermediary Factor 2 (AR-TIF2) Antagonism High Content Imaging Assay for Ratio of Nucleoli Translocation and Cytoplasm (AID 2283999).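 Further: antagonists lower the DHT-driven ratio of nucleolar to cytoplasmic red signal.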 The procedure, abridged: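 Human osteosarcoma U2OS line, AR fused to RFP, coactivator TIF2 fused to GFP. Cpds 20 uM final, 0.2% DMSO (screen); 0.195–50 uM final, 0.5% DMSO (CRC). Endpoint: nucleoli/cytoplasm red signal ratio, DHT as baseline, loss-of-signal antagonist mode.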
For the compound `Cc1cc([N+](=O)[O-])cc([N+](=O)[O-])c1O`, the result was inactive.

`O=C1C2CC=CCC2C(=O)N1SC(Cl)(Cl)C(Cl)Cl` (stereo not given): the outcome was inactive.

On to `O=[P+](Oc1ccccc1)Oc1ccccc1`, for which the result was inactive.

The target is the same in a further test. In words: UPITT_HCI_U2OS_AR_TIF2_Nucleoli_Cytoplasm_Ratio_Agonist: University of Pittsburgh U2OS Androgen Receptor-Transcriptional Intermediary Factor 2 (AR-TIF2) Agonism High Content Imaging Assay for Ratio of Nucleoli Translocation and Cytoplasm (AID 2284000).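 Further: hits raise the red nucleolar to cytoplasm ratio above vehicle.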 Summed up: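 U2OS cells expressing RFP-tagged human AR and GFP-tagged TIF2 were imaged by high-content fluorescence microscopy. The endpoint is the ratio of nucleolar to cytoplasmic red fluorescence, fitted for gain of signal relative to DMSO. Concentration-response spanned 0.195 to 50 uM final (0.5% DMSO).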
As for `Cc1cc([N+](=O)[O-])cc([N+](=O)[O-])c1O`, the result was inactive.

The term AC50 denotes the concentration giving half of the maximal activity seen. For `O=C1C2CC=CCC2C(=O)N1SC(Cl)(Cl)C(Cl)Cl` (stereo not given), the AC50 is active: 63.3 µM.

Turning to `O=[P+](Oc1ccccc1)Oc1ccccc1`, the result was inactive.

Test system in another test: not listed separately
In words: CCTE_Shafer_MEA_acute_spike_number: CCTE's Neural Acute Assay for Total Number of Spikes, Shafer Lab (AID 2284008; active means hit-call score of the fitted dose curve at least 0.9, where 1 is the maximum; inactive means score below 0.9;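 on AC50: curve fitted for decrease in spike count so AC50 reflects inhibitors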). The protocol:
CCTE_Shafer_MEA_acute assay is conducted using Axion Biosystems 48 well microelectrode array (MEA) plates and Maestro recording system. Each well of the MEA plate contains a grid of 16 microelectrodes embedded in the culture surface. Electrically active cells, such as neurons, can be cultured over the electrodes, and electrical activity in these cells can be recorded extracellularly. The spontaneous firing of neurons is captured from each electrode on a microsecond timescale providing both temporally and spatially precise data. […] The CCTE_Shafer_MEA_acute assay uses primary cultures of rat cortical neurons. As these cultures mature over time, neural networks develop functional activity and form cohesive networks in which electrical activity can be highly coordinated. Baseline 40-minute recordings are made on days post-plating 13 or 15, followed by a secondary 40-minute recording after chemical exposure.CCTE_Shafer_MEA_acute_spike_number is a component of the CCTE_Shafer_MEA_acute assay. […] Data from the assay component CCTE_Shafer_MEA_acute_spike_number was analyzed into 1 assay endpoint. This assay endpoint, CCTE_Shafer_MEA_acute_spike_number, was analyzed in the negative analysis fitting direction relative to DMSO as the negative control and baseline of activity. […]
Spontaneous activity in the cortical cultures was recorded using an Axion Biosystems Maestro 768 channel amplifier and Axion Integrated Studios (AxIS) v1.8 (or later) software. The amplifier recorded from all channels simultaneously (gain = 1200 x; sampling rate = 12.5 kHz/channel): raw signals were filtered with a Butterworth band-pass filter (300-5000 Hz), which filters out slower local field potentials leaving only fast potentials, i.e., "spikes", arising from extracellular currents associated with action potentials (Pine 2006; Wheeler and Nam 2011). […] Any electrodes with rms noise levels greater than 5 uV were grounded (e.g., no data were recorded). […] Baseline activity (40 min) was recorded before the addition of each compound. An additional 40 min of spontaneous activity was recorded in the presence of each compound. […]
As to `O=C1C2CC=CCC2C(=O)N1SC(Cl)(Cl)C(Cl)Cl` (stereo not given), the compound was classed as inactive.

In the case of `CC(C)OP(=S)(OC(C)C)SCCNS(=O)(=O)c1ccccc1`, the half-maximal activity concentration (AC50) is active: 3.37 µM.

For the compound `CN(C(=O)Cc1cccc2occc12)[C@H]1CC[C@@]2(CCCO2)C[C@@H]1N1CCCC1`, the AC50 was active: 5.36 µM.

Test system in another test: not listed separately
In words: CCTE_Shafer_MEA_acute_firing_rate_mean: CCTE's Neural Acute Assay for Mean Firing Rate, Shafer Lab (AID 2284009; active means hit-call score of the fitted dose curve at least 0.9, where 1 is the maximum; inactive means score below 0.9;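 further: analyzed for loss of signal so actives lower firing rate relative to DMSO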). The procedure, abridged: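 Read-out: well-mean spike rate (spikes/recording length/electrodes), % change from 40 min pre-dose baseline to 40 min with compound. Rat cortical cultures, DIV 13 or 15, 37 C; 0.03-40 uM; DMSO as negative control.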
Take `O=C1C2CC=CCC2C(=O)N1SC(Cl)(Cl)C(Cl)Cl` (stereo not given): the outcome was inactive.

On to `CC(C)OP(=S)(OC(C)C)SCCNS(=O)(=O)c1ccccc1`, for which the half-maximal activity concentration (AC50) was active: 3.36 µM.

With `CN(C(=O)Cc1cccc2occc12)[C@H]1CC[C@@]2(CCCO2)C[C@@H]1N1CCCC1`, the AC50 was active: 5.36 µM.

The record behind these values is PubChem BioAssay (EPA / NIEHS).
